These results are taken from US8168667B2 (Galapagos NV, priority 2006, dated 2012).

Amino acid sequences for entries named in this document (tags omitted).
UniProt P10275, whole entry: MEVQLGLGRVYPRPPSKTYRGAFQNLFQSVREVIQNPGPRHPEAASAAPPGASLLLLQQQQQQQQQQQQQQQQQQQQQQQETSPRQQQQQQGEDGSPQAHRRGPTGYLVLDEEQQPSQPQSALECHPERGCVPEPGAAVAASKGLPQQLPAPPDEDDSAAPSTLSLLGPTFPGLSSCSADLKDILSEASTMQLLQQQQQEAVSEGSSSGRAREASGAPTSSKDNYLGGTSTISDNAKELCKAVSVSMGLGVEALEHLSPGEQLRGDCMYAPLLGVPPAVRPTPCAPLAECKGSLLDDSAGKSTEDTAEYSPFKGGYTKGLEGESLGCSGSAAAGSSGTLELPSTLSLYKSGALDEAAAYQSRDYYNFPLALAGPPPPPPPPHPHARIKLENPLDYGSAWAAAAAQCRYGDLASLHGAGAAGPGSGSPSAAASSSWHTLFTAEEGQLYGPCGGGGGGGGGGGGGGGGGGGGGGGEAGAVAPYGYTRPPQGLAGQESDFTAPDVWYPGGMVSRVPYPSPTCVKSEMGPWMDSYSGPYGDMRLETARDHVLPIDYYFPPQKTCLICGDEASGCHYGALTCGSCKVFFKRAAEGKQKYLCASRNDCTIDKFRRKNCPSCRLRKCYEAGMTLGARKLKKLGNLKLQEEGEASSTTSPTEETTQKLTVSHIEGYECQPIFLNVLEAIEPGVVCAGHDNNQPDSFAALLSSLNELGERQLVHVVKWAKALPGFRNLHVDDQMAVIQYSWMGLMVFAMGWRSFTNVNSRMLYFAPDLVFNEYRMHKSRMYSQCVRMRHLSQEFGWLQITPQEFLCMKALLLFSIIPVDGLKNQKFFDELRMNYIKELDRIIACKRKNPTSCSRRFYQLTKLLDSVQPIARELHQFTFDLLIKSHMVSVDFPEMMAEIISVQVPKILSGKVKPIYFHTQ

The test addresses human androgen receptor (hAR) (Homo sapiens, UniProt P10275). In words: Functional response test: hAR transactivation (luciferase reporter) in HALP2 cells. Type of test: cell-based. The following applies: for EC50: read-out: EC50 (nM) Kd, agonism, HALP2 cells (HeLa, hAR + ARE-luciferase), 20 hours at 37° C. (In general: Reporter assays use an easily measured gene product as a stand-in for the process of interest.)

Regarding `O=C1C(c2ccc(O)cc2)N(Cc2ccsc2)C(=O)N1c1ccc(Cl)cc1Cl` (stereo not shown), the “KSchild (nM) potency” value worked out at 205.98 nM and the EC50 (in general, the concentration at which the effect is half-maximal) turned out to be 206 nM.

`CCCCC1(c2ccc(O)cc2)C(=O)N(c2ccc(C#N)c(C(F)(F)F)c2)C(=O)N1C` (stereo not shown): the “KSchild (nM) potency” value is recorded as 15 nM and the EC50 turned out to be 15 nM.
